Measurements: patent US20230203059A1, “MACROCYCLIC JAK INHIBITOR AND USES THEREOF” (Biopolar Hongye (Guangdong) Pharmaceutical Co. Ltd., priority 2020, published 2023)

The chains behind the UniProt entries cited, without tags or fusion partners.
UniProt O60674, whole entry: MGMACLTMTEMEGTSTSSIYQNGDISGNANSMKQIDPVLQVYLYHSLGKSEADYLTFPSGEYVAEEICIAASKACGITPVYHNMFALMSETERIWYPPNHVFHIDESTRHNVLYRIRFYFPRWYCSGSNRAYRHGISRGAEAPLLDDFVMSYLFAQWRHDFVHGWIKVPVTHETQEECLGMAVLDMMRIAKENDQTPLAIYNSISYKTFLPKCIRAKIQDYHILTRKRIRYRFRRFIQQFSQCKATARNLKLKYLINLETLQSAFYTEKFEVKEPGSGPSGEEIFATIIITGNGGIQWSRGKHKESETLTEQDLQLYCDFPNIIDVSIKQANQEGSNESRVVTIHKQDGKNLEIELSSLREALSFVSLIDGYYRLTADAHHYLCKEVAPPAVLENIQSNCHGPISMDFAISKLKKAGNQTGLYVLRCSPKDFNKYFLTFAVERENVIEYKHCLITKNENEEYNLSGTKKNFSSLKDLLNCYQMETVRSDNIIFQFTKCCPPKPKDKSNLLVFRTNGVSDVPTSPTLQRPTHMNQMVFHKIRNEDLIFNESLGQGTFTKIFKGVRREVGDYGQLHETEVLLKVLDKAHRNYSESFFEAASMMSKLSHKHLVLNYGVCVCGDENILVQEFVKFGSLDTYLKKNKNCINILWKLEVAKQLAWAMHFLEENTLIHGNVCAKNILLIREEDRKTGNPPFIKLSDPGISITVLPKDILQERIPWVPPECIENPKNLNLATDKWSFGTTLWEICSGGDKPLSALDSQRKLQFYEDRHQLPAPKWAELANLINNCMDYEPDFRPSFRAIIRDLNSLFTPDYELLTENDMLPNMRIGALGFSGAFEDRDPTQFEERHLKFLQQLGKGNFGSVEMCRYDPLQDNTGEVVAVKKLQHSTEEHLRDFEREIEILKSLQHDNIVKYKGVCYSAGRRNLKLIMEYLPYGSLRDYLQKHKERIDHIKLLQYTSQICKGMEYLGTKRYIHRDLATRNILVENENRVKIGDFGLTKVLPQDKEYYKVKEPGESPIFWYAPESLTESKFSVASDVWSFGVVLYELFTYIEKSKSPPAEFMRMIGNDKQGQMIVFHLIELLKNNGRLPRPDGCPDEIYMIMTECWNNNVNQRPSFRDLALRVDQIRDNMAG
UniProt P29597, whole entry: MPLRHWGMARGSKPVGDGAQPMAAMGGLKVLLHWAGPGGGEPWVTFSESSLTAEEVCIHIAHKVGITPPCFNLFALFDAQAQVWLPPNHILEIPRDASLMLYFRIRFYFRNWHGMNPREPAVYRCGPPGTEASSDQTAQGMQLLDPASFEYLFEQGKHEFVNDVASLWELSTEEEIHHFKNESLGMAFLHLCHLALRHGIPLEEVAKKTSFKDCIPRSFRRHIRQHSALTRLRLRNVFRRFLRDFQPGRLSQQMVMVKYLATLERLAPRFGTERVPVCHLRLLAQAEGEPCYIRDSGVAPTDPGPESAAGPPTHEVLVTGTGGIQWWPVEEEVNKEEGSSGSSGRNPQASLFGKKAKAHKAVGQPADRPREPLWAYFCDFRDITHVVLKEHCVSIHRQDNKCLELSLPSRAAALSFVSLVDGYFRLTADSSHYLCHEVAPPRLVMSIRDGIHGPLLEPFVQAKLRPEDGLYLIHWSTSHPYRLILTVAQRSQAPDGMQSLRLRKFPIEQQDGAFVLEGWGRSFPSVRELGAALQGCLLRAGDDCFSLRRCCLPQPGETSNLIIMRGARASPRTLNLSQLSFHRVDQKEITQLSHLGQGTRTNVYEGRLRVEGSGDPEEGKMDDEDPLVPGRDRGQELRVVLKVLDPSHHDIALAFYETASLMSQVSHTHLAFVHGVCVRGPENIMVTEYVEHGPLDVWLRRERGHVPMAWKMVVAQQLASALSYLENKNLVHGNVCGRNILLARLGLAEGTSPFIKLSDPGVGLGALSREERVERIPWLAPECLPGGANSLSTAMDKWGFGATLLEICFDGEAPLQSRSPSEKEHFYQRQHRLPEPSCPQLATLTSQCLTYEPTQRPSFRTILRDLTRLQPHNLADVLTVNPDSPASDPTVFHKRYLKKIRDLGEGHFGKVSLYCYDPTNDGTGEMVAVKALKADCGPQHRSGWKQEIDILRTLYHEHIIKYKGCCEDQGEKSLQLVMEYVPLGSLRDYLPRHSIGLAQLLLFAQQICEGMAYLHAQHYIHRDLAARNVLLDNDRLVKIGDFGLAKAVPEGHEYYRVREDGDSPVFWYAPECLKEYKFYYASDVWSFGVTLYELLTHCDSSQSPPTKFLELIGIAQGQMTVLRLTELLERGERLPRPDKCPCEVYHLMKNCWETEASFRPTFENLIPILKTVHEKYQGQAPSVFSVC

What was measured:
[1] = target: JAK2 (Homo sapiens, UniProt O60674); assay: JAK kinase activity, homogeneous time-resolved fluorescence (JAK2 reaction system); settings: read-out: JAK 2 activity; ATP 2 μM, JAK2 protein 0.01 ng/μL
[2] = target: TYK2 (Homo sapiens, UniProt P29597); assay: JAK kinase activity, homogeneous time-resolved fluorescence (TYK2 reaction system); settings: read-out: TYK 2 activity; ATP 2 μM, TYK2 protein 0.2 ng/μL

## Nc1cc2ccc1-c1ccnc(n1)Nc1ccc(Cl)c(c1)COCCCCNC2=O
[1]
  IC50: 1 to 10 µM
[2]
  IC50: 1 to 10 µM
